# Assay results taken from publication PMC7468108 (Communications Biology, 2020).
# Where two headings read alike, the source gives them in different places.
# System: HEK-293 cells
# Conditions: 24 h; for %Viability: human
# Method: The SH-SY5Y and HEK-293 cell lines (2 × 10^5 cells/mL) were cultured in 96-well tissue microplates (100 µL/well) and allowed to adhere overnight at 37 °C. The conjugate molecules were dissolved in DMEM:nutrient mixture F12 (Ham’s) (1:1) (Biological Industries, Israel) at different concentrations. The negative control was prepared as medium without hybrid molecules and treated in the same manner. 100 µL of medium with or without hybrid molecules were added to each well in triplicate. Following incubation for 24 h at 37 °C, cell viability was evaluated using the 2,3-bis(2-methoxy-4-nitro-5-sulfophenyl)-2H-tetrazolium-5-carboxanilide (XTT) cell proliferation assay kit (Biological Industries, Israel) according to the manufacturer’s instructions. Briefly, 100 µL of activation reagent was added to 5 mL of XTT reagent, followed by the addition of 50 µL of activated-XTT solution to each well. After 2 h incubation at 37 °C, color intensity was measured using an ELISA microplate reader at 450 nm and 630 nm. […] Each experiment was repeated minimum three times.
structure (smiles),measurement,setting,value
CC[C@H](C)[C@H](NC(=O)[C@H](C)NC(=O)CNC(=O)[C@H](Cc1ccccc1)NC(=O)[C@H](CC(N)=O)NC(=O)[C@H](CC(N)=O)NC(=O)[C@H](CO)NC(=O)[C@H](CO)NC(=O)[C@H](Cc1c[nH]cn1)NC(=O)[C@@H](NC(=O)[C@H](CC(C)C)NC(=O)[C@H](Cc1ccccc1)NC(=O)[C@H](CC(N)=O)NC(=O)[C@H](C)NC(=O)[C@H](CC(C)C)NC(=O)[C@H](CCCNC(=N)N)NC(=O)[C@H](CCC(N)=O)NC(=O)[C@@H](NC(=O)[C@H](C)NC(=O)[C@@H]1CSSC[C@H](NC(=O)[C@@H](N)CCCCN)C(=O)N[C@@H](CC(N)=O)C(=O)N[C@@H]([C@@H](C)O)C(=O)N[C@@H](C)C(=O)N[C@@H]([C@@H](C)O)C(=O)N1)[C@@H](C)O)C(C)C)C(=O)N[C@@H](CC(C)C)C(=O)N[C@@H](CO)C(=O)N[C@@H](CO)C(=O)N[C@H](C(=O)N[C@@H](CC(N)=O)C(=O)N[C@H](C(=O)NCC(=O)N[C@@H](CO)C(=O)N[C@@H](CC(N)=O)C(=O)N[C@H](C(=O)N[C@@H](Cc1ccc(O)cc1)C(N)=O)[C@@H](C)O)C(C)C)[C@@H](C)O [hIAPP],IC50,,~10 µM
same,%Viability,1 µM,80.064%
same,%Viability,5 µM,61.929%
same,%Viability,15 µM,44.440%
same,%Viability,20 µM,36.315%
